Ab-14 heavy chain CDR variants: yeast mating affinities

Values reported by Engelhart et al. 2022, doi:10.1038/s41597-022-01779-4 (FLAb copy).

All variants were tested on one target, the spike HR2 peptide PDVDLGDISGINAS (SARS-CoV-2).

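The starting antibody came from a phage panning campaign against this peptide. Variants in AAYL49 differ from the parent at up to three CDR positions; double and triple changes were sampled at random. The assay is AlphaSeq: two haploid yeast populations carry antibody and antigen on their surface. Pairs that bind mate more often; barcode pairs of the diploids are counted by sequencing. Each replicate has its own calibration line, from reference interactions of the BCL2 family. The assay was run in three technical replicates.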

The variants keep the light chain, the linker and the frameworks of Ab-14 (scFv order VH, three GGGGS repeats, VL).
VH: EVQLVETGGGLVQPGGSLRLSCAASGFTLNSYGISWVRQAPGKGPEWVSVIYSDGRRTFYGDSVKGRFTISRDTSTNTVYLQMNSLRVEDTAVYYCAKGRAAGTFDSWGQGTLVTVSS
VL: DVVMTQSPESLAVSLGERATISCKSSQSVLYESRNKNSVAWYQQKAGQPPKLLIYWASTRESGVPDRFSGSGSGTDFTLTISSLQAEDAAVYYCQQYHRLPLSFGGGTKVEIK

Each variant's VH is given in full. Affinities are written as log10 Kd with Kd in nM; a lower number is a better binder. The mean shown is taken over the replicates in which the pair was detected. An entry "ND" has no value in the source: the pair was not observed among the diploids in that replicate. This suggests poor binding but is not conclusive. Nonspecific signal, from three strains lacking the peptide, appeared in 15% of pairings of library AAYL49, centred on 4.06 (5% of these signals below 2.83); values are not corrected for it. The control count says in how many pairings with the empty strains this scFv gave a signal, with their mean in brackets.

VH | log10 Kd (nM) by replicate | log10 Kd (nM), mean | control signals
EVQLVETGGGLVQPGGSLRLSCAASGITLNSYGISWVRQAPGKGPEWVSVIYSDGRRTFFGDSVKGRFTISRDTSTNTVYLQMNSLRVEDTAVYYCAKGRAAGWFDSWGQGTLVTVSS | ND ND ND | ND | 0/9
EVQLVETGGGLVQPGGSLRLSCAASGFTLNSYGISWVRQAPGKGPEWVSVIYSDGRRTFYGDSVKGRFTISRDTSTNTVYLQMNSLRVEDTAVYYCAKGRAEGTFQSWGQGTLVTVSS | ND ND ND | ND | 0/9
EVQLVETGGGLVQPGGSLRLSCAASGFELNSYGISWVRQAPGKGPEWVSVIHSDGRRTFYGDSVKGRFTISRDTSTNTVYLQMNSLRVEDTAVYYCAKGRTAGTFDSWGQGTLVTVSS | 0.96 1.07 1.13 | 1.05 | 0/9
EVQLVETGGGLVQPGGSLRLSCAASCFTLNRYGISWVRQAPGKGPEWVSVIYSDGRRTFYGDSVKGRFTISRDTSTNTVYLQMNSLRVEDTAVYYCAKGRAAGTRDSWGQGTLVTVSS | ND ND ND | ND | 0/9
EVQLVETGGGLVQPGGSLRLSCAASGFTLNSYGIKWVRQAPGKGPEWVSFIYSDGRRTFYGDSVKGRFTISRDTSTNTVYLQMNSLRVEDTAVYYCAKGRDAGTFDSWGQGTLVTVSS | ND ND ND | ND | 0/9
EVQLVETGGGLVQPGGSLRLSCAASGFTLNSYGISWVRQAPGKGPEWVSVRYSDGRRTFYGKSVWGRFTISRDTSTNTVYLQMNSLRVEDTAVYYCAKGRAAGTFDSWGQGTLVTVSS | ND ND ND | ND | 4/9 (4.30)
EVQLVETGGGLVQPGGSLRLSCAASGFTLNSYGIFWVRQAPGKGPEWVSVIYSDPRRTFYGDSVKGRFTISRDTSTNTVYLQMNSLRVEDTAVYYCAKGRAAGTFPSWGQGTLVTVSS | 4.83 ND ND | 4.83 | 3/9 (4.57)
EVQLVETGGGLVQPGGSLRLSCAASGFTLNSYGGSWVRQAPGKGPEWVSVIYSDGRRTFYGDSVKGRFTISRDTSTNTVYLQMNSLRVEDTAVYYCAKGRAAKAFDSWGQGTLVTVSS | ND ND ND | ND | 1/9 (3.30)
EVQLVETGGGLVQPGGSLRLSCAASCFTLCSIGISWVRQAPGKGPEWVSVIYSDGRRTFYGDSVKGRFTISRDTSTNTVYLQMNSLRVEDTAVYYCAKGRAAGTFDSWGQGTLVTVSS | ND ND 4.19 | 4.19 | 0/9
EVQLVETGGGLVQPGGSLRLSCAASSFTLNSYGISWVRQAPGKGPEWVSVIYSDGRRTFYGDAVKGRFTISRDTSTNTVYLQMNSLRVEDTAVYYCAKGDAAGTFDSWGQGTLVTVSS | 1.23 1.62 1.86 | 1.57 | 0/9
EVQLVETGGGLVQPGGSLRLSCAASGFTLNSYGISWVRQAPGKGPEWVSVIYRDGRRTFYGDSVRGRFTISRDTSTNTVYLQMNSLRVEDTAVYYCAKGRAIGTFDSWGQGTLVTVSS | ND ND ND | ND | 1/9 (4.24)
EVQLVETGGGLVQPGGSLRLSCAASGNTLNSYGISWVRQAPGKGPEWVSVIYSDGRRTFYGDFVKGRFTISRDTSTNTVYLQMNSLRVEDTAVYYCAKGIAAGTFDSWGQGTLVTVSS | ND 4.94 ND | 4.94 | 1/9 (3.80)
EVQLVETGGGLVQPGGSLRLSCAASGDTLNSYGISWVRQAPGKGPEWVSVIYSFGRRTFYGKSVKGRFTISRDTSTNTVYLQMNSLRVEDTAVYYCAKGRAAGTFDSWGQGTLVTVSS | ND ND 3.28 | 3.28 | 1/9 (3.41)
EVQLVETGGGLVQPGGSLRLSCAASGFTLNSYGISWVRQAPGKGPEWVSVIYSDGRRTFWGDPVKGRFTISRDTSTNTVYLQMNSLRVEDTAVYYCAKGRNAGTFDSWGQGTLVTVSS | ND ND ND | ND | 2/9 (3.63)
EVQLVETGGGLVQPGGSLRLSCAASGFTLNSYGISWVRQAPGKGPEWVSVLYSDGRRTFYGDSVKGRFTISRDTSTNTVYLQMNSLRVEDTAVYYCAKGRAAWHFDSWGQGTLVTVSS | ND 4.96 ND | 4.96 | 3/9 (4.50)

Picked from the list: the 2 lowest averages where every replicate gave a value.

VH,log10 Kd (nM) by replicate,"log10 Kd (nM), mean",control signals
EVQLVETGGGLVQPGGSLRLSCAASGFELNSYGISWVRQAPGKGPEWVSVIHSDGRRTFYGDSVKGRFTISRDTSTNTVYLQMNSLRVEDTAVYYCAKGRTAGTFDSWGQGTLVTVSS,0.96 1.07 1.13,1.05,0/9
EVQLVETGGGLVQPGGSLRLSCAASSFTLNSYGISWVRQAPGKGPEWVSVIYSDGRRTFYGDAVKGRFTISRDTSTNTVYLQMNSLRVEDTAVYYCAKGDAAGTFDSWGQGTLVTVSS,1.23 1.62 1.86,1.57,0/9